Data as given in the supplement of paper PMC11403291.
± gives the standard deviation of the averaged measurements.

The chains behind the UniProt entries cited, without tags or fusion partners. Where a name states a change or a piece, a line headed by the entry shows the natural chain unless it says otherwise.
UniProt Q02750, whole entry: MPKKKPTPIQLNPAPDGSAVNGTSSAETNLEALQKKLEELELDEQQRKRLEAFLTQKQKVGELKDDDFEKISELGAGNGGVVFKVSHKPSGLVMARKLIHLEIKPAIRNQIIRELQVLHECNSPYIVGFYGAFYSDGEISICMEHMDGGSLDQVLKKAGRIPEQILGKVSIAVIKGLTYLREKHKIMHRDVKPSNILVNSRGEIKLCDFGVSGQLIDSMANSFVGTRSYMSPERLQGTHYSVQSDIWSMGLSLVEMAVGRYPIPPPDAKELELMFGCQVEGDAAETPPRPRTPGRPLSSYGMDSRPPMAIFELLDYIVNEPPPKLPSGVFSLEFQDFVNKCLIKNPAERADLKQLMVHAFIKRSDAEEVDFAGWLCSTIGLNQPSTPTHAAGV
UniProt Q9NSY1, whole entry, looked up: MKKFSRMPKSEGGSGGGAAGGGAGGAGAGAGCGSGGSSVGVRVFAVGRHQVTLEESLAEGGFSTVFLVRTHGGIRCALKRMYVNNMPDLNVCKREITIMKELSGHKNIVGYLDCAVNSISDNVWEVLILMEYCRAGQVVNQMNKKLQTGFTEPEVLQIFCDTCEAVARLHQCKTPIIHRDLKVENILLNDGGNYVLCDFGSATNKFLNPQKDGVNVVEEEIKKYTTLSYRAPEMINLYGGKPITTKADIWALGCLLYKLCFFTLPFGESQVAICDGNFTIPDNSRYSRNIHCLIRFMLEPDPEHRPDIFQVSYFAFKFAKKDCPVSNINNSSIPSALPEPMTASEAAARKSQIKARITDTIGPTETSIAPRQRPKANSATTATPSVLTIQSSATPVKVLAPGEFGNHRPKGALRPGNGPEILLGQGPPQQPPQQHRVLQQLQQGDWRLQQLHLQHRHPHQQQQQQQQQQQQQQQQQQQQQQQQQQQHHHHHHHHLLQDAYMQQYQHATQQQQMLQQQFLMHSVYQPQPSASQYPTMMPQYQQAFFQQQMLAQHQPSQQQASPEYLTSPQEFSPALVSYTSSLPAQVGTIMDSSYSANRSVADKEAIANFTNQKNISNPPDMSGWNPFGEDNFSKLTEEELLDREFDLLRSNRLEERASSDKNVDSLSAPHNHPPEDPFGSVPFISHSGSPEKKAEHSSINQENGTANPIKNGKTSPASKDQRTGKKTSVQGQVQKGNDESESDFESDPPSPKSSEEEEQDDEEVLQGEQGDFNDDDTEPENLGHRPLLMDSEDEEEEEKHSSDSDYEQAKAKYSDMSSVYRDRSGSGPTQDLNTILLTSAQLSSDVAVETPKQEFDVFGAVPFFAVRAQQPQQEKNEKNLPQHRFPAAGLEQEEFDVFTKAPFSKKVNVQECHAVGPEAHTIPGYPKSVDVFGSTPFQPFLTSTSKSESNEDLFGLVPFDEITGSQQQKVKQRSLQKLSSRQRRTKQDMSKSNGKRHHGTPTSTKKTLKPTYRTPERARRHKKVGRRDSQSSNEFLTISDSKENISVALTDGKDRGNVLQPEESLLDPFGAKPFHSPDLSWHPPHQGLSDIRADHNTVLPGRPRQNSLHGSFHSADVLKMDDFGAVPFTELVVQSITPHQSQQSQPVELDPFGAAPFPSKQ
UniProt Q9UKE5: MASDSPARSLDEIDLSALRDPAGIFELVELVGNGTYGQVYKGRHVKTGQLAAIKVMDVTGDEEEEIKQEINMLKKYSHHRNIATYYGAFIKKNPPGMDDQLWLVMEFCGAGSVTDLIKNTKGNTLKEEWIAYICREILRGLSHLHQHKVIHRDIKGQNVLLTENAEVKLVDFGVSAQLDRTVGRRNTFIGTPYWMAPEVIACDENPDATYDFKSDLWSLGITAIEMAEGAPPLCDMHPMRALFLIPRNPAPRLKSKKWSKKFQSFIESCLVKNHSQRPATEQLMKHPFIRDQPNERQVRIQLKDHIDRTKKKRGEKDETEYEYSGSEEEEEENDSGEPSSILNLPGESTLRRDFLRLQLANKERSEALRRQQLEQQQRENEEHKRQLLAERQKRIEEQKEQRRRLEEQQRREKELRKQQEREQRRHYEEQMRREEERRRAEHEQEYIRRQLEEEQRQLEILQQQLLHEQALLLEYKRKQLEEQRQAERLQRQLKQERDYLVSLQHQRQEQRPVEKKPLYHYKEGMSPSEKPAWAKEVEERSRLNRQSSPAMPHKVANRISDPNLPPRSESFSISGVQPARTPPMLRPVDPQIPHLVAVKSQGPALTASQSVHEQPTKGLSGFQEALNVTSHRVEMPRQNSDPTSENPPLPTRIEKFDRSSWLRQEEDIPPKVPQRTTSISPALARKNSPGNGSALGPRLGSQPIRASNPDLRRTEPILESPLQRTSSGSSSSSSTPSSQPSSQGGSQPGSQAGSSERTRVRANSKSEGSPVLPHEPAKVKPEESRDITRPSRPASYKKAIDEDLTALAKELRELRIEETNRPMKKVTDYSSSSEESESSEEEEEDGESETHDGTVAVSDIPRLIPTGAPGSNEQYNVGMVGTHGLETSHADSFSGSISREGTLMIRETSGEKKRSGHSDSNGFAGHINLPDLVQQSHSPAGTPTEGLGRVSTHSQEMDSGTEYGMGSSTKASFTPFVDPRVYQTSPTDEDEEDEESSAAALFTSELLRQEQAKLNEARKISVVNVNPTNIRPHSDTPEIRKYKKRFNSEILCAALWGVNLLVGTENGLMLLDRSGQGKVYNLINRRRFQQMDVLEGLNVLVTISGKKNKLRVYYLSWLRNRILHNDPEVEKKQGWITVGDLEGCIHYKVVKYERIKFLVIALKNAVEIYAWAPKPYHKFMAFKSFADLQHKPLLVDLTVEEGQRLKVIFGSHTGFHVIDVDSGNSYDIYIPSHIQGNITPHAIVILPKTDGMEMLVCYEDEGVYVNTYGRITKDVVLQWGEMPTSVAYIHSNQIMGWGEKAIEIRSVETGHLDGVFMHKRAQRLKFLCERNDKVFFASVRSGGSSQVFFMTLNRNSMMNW
UniProt Q9P2K8: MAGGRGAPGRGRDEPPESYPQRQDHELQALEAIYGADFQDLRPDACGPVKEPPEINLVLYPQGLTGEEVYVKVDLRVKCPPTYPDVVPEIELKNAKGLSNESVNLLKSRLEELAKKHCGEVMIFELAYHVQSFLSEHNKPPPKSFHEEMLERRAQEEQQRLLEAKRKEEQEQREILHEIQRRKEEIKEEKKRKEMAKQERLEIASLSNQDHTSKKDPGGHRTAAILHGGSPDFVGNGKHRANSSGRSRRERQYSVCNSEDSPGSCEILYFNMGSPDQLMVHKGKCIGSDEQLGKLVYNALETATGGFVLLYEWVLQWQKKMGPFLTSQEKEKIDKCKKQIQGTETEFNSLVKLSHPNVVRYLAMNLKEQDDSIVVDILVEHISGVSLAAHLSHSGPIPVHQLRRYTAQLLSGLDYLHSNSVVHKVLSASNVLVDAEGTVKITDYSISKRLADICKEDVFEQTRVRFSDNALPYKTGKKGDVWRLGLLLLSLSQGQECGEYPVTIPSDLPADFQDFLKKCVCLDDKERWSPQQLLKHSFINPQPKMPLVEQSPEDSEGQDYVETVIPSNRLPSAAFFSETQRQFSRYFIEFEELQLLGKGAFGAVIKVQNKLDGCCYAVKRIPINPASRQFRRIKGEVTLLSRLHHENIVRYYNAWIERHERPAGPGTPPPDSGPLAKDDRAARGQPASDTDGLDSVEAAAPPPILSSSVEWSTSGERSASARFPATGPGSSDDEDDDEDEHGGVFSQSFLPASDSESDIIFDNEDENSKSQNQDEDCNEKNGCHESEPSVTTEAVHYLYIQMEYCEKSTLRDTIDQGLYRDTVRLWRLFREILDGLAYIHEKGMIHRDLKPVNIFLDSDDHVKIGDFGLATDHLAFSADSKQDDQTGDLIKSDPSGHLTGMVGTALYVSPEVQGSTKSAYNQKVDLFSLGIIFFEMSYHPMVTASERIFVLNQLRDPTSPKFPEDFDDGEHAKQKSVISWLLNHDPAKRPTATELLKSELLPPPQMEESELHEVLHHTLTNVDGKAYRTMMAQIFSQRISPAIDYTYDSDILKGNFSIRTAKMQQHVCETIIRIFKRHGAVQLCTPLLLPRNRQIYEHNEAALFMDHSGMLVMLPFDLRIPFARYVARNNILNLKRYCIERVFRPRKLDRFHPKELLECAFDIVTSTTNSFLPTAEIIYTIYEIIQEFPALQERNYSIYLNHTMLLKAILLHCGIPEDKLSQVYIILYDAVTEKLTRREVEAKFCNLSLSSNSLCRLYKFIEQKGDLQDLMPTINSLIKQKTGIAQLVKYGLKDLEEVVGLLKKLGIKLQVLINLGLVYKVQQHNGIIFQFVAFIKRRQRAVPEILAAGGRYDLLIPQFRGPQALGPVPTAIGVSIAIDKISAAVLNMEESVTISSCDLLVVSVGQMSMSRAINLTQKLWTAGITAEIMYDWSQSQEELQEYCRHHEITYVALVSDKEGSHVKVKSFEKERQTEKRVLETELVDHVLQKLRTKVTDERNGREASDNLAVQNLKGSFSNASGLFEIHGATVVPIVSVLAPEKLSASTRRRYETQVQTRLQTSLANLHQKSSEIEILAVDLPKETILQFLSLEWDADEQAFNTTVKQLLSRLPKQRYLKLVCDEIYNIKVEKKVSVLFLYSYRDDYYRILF
UniProt Q9Y6R4: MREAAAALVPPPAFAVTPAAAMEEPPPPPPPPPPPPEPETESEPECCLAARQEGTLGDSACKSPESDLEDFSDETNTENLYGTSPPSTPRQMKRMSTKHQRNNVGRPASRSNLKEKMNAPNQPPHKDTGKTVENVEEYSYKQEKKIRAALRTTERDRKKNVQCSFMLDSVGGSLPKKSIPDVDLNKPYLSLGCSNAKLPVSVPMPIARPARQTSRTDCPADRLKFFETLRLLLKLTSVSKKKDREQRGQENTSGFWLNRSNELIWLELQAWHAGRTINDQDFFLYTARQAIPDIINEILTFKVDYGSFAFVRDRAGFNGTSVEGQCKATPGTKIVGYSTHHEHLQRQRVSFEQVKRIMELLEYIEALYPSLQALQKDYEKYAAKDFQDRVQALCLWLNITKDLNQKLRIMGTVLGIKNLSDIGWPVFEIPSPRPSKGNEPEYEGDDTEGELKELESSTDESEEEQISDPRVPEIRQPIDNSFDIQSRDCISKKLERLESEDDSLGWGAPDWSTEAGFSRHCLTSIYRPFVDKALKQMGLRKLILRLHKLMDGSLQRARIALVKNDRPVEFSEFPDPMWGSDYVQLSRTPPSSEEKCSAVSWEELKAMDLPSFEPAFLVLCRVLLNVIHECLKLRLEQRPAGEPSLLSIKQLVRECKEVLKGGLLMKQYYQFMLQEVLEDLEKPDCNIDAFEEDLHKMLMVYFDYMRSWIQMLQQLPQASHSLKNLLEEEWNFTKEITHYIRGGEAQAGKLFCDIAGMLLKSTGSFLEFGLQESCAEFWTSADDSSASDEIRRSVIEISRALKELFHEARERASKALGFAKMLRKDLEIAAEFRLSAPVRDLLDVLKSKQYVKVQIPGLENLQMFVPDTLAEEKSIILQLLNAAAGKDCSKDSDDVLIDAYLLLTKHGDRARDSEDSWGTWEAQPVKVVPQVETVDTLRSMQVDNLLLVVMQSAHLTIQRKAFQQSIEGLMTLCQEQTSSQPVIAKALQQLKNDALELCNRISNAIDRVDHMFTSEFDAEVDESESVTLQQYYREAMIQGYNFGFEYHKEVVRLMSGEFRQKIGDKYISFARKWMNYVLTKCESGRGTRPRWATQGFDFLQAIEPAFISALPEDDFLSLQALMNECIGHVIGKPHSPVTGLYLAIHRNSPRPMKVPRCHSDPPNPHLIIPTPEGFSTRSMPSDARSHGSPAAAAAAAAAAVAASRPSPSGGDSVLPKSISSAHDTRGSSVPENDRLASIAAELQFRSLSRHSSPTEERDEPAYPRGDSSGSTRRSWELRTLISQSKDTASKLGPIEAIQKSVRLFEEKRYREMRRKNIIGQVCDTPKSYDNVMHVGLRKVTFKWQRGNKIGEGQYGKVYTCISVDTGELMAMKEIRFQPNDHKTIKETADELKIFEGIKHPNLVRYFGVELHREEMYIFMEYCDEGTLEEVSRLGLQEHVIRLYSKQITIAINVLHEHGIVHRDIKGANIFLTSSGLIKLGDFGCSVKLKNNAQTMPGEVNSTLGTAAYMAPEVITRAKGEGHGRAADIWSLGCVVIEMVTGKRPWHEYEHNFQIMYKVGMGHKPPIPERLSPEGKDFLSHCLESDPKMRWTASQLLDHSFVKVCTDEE

Assays:
Test in all cases: apparent dissociation constant pKd app (kinobead competition) (-log10(M)); higher = stronger binding
[1] = molecular target: MAP2K1 (UniProt Q02750)
[2] = molecular target: BMP2K (UniProt Q9NSY1)
[3] = molecular target: TNIK (UniProt Q9UKE5)
[4] = molecular target: T1, MAP3K2 (UniProt Q9Y2U5)
T1 sequence (whole entry): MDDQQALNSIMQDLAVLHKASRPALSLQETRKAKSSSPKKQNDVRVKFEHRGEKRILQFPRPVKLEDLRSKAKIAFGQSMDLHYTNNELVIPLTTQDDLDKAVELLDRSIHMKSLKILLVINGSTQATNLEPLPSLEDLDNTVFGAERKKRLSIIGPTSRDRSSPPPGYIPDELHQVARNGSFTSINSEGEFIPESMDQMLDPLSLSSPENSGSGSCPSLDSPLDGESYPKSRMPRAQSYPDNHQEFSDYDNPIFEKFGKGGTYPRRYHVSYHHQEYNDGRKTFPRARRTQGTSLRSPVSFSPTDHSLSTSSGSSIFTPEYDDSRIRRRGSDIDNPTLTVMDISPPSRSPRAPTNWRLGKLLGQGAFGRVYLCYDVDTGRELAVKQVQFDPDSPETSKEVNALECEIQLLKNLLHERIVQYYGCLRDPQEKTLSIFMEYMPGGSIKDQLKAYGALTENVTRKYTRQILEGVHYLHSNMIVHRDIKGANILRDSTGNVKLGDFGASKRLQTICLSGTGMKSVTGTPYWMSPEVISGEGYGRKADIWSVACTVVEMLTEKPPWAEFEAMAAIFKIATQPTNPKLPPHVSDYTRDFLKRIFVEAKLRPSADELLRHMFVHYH

[5] = molecular target: T2, ACVR1 (UniProt Q04771)
T2 sequence (whole entry): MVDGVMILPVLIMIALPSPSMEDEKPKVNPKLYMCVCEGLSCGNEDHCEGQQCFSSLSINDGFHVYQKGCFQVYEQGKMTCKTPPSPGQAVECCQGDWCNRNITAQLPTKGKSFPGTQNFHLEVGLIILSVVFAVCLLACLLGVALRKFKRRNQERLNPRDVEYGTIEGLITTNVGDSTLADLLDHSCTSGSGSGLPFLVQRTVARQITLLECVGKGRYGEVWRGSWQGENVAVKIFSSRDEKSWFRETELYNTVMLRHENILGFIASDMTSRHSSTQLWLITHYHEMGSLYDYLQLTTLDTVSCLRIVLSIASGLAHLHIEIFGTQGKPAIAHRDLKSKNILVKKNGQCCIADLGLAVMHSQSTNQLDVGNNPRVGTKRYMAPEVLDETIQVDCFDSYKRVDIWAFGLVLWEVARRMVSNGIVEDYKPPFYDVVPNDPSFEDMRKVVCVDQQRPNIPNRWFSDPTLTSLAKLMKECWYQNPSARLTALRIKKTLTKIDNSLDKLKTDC

[6] = molecular target: MAP4K5 (UniProt Q9Y4K4)
[7] = molecular target: TEK (UniProt Q02763)
[8] = molecular target: EIF2AK4 (UniProt Q9P2K8)
[9] = molecular target: MAP3K4 (UniProt Q9Y6R4)
[10] = molecular target: HIPK1 (UniProt Q86Z02)
[11] = molecular target: T3, DSTYK (UniProt Q6XUX3)
T3 sequence (whole entry): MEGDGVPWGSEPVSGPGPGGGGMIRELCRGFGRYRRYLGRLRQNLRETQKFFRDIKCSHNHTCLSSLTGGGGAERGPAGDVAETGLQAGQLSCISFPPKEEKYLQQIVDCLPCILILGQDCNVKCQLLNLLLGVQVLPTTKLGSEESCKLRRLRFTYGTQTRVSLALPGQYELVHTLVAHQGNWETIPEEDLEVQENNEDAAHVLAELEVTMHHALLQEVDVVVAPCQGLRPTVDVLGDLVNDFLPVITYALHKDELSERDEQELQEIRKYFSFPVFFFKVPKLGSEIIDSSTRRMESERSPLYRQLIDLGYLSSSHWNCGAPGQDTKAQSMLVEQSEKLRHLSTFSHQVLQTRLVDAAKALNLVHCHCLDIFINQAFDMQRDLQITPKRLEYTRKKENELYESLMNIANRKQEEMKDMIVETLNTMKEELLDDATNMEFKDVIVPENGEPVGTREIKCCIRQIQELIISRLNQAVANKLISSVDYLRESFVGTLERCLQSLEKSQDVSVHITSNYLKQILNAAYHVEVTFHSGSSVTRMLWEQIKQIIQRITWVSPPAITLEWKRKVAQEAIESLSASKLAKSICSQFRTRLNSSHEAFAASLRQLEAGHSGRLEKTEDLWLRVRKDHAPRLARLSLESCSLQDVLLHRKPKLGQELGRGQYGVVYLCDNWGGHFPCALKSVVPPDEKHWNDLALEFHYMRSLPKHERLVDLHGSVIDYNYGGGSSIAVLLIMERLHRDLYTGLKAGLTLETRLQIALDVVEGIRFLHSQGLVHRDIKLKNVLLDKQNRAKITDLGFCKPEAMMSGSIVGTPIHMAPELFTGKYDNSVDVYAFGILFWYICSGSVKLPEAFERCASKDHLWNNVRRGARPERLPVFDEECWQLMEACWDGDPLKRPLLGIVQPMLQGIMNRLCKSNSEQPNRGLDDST

Row | Structure (SMILES) | apparent dissociation constant pKd app (-log10) [1] | apparent dissociation constant pKd app (-log10) [2] | apparent dissociation constant pKd app (-log10) [3] | apparent dissociation constant pKd app (-log10) [4] | apparent dissociation constant pKd app (-log10) [5] | apparent dissociation constant pKd app (-log10) [6] | apparent dissociation constant pKd app (-log10) [7] | apparent dissociation constant pKd app (-log10) [8] | apparent dissociation constant pKd app (-log10) [9] | apparent dissociation constant pKd app (-log10) [10] | apparent dissociation constant pKd app (-log10) [11]
1 | NC(=O)c1cccc2cn(-c3ccc([C@@H]4CCCNC4)cc3)nc12 [Niraparib] | < 4.5 | < 4.8 | < 4.6 | < 4.6 | < 4.8 | < 4.5 | < 4.6 | < 4.5 | < 4.6 | 5.05 ± 0.071 | < 4.5
2 | Cn1ncnc1[C@H]1c2n[nH]c(=O)c3cc(F)cc(c23)N[C@@H]1c1ccc(F)cc1 [Talazoparib] | < 4.5 | < 4.8 | < 4.6 | < 4.6 | < 4.8 | < 4.5 | < 4.6 | < 4.5 | < 4.6 | < 4.7 | < 4.5
3 | O=C(c1cc(Cc2n[nH]c(=O)c3ccccc23)ccc1F)N1CCN(C(=O)C2CC2)CC1 [Olaparib] | < 4.5 | < 4.8 | < 4.6 | < 4.6 | < 4.8 | < 4.5 | < 4.6 | < 4.5 | < 4.6 | < 4.7 | < 4.5
